The conditions of this data set: salts of tetrahydrofuran-2,3,4,5-tetracarboxylic acid; 1 ml distilled water with around 20 to 40% by weight of salt, stirred 15 minutes; no = no clear solution.

With “Norbornane bis(methylammonium)-dihydrogen-tetrahydrofuran-2,3,4,5-tetracarboxylate [Example B15]”, the Salt is water-soluble entry was “yes”.

“Tricyclo[5.2.1.0^2,6]decane-3(4),8(9)-bis(methanammonium)-dihydrogen-tetrahydrofuran-2,3,4,5-tetracarboxylate [Example B17]”: the Salt is water-soluble result was “yes”.
